Reference: patent publication US8937189B2 (dated 2015)

Tested on: rat NET
Experiment: Inhibition of [3H]nisoxetine binding to NET

Row | SMILES | NET binding/DAT binding
1 | Oc1ccc(CN[C@H]2CC[C@@H](C(c3ccccc3)c3ccccc3)OC2)cc1 (relative stereo) [Compound 16h, Cis-(6-benzhydryl-tetrahydropyran-3-yl)-(4-hydroxy-benzyl)-amine] | 0.29
2 | Nc1ccc(CN[C@H]2CC[C@@H](C(c3ccccc3)c3ccccc3)OC2)cc1 (relative stereo) [Compound 16o, Cis-(6-benzhydryl-tetrahydropyran-3-yl)-(4-amino-benzyl)-amine] | 0.81
